Results: BindingDB's records for doi:10.1021/jm9600813 (National Institute of Diabetes and Digestive and Kidney …, 1996)

Biological target: Sigma non-opioid intracellular receptor 1 (Cavia porcellus) (UniProt Q60492)
Experiment: Displacement of [3H](+)-pentazocine from Sigma opioid receptor type 1 in guinea pig brain membrane

Compound `COc1ccccc1CC(=O)N(C)CCN1CCCC1` [2-(2-Methoxy-phenyl)-N-methyl-N-(2-pyrrolidin-1-yl-ethyl)-acetamide] has a Ki of 5.46 µM.
